How the values were obtained:
Format in all cases: in vivo, Mice
CTG-0121 CRC PDX model = assay: CTG-0121 HER2 positive CRC PDX model, tumor growth inhibition
Experimental: (§1) The TGI index is calculated for a particular time point (e.g., a specific number of days into an experiment or clinical trial) according to the following formula: […]
(§2) where “Tx Day 0” denotes the first day that treatment is administered (i.e., the first day that an experimental therapy or a control therapy (e.g., vehicle only) is administered) and “Tx Day X” denotes X number of days after Day 0. […] As a non-limiting example, in an experiment where study day 0 corresponds to “Tx Day 0” and the TGI index is calculated on study day 28 (i.e., “Tx Day 28”), if the mean tumor volume in both groups on study day 0 is 250 mm^3 and the mean tumor volumes in the experimental and control groups are 125 mm^3 and 750 mm^3, respectively, then the TGI index on day 28 is 125%.
(§3) Tucatinib was administered orally at a dose of 50 mg/kg twice per day for 28 days (study days 0-27). […] A vehicle-only group was included as a negative control.

CTG-0784 CRC PDX model = assay: CTG-0784 HER2 positive CRC PDX model, tumor growth inhibition
Experimental: as §1
(§4) where “Tx Day 0” denotes the first day that treatment is administered (i.e., the first day that an experimental therapy or a control therapy (e.g., vehicle only) is administered) and “Tx Day X” denotes X number of days after Day 0. Typically, mean volumes for treated and control groups are used. As a non-limiting example, in an experiment where study day 0 corresponds to “Tx Day 0” and the TGI index is calculated on study day 28 (i.e., “Tx Day 28”), if the mean tumor volume in both groups on study day 0 is 250 mm^3 and the mean tumor volumes in the experimental and control groups are 125 mm^3 and 750 mm^3, respectively, then the TGI index on day 28 is 125%.
as §3

CTG-0383 CRC PDX model = assay: CTG-0383 HER2 positive CRC PDX model, tumor growth inhibition
Experimental: as §1, §2, §3

[1] = test system: CTG-0137 esophageal cancer PDX model; assay: CTG-0137 HER2 positive esophageal cancer PDX model, tumor growth inhibition
Experimental: as §1, §4, §3

[2] = test system: GXA 3038 gastric cancer PDX model; assay: GXA 3038 HER2 positive gastric cancer PDX model, tumor growth inhibition
Experimental: as §1, §4, §3

[3] = test system: GXA 3039 gastric cancer PDX model; assay: GXA 3039 HER2 positive gastric cancer PDX model, tumor growth inhibition
Experimental: as §1, §4, §3

[4] = test system: GXA 3054 gastric cancer PDX model; assay: GXA 3054 HER2 positive gastric cancer PDX model, tumor growth inhibition
Experimental: as §1, §4, §3

[5] = test system: CTG-0927 HER2 positive cholangiocarcinoma PDX model; assay: CTG-0927 HER2 positive cholangiocarcinoma PDX model, tumor growth inhibition; settings: CTG-0927 cholangiocarcinoma PDX model
Experimental: as §1, §4, §3

[6] = test system: Calu-3 NSCLC xenograft model; assay: Calu-3 HER2 positive NSCLC xenograft model, tumor growth inhibition
Experimental: as §1, §4
(§5) For the Calu-3 study, tucatinib was administered orally at a dose of 50 mg/kg twice per day for 21 days, beginning on study day 7. […] Seven doses of trastuzumab were administered. A vehicle-only group was included as a negative control. Three individual animals received dose holidays (one in the negative control group and two in the combination therapy group).

[7] = test system: NCI-H2170 NSCLC xenograft model; assay: NCI-H2170 HER2 positive NSCLC xenograft model, tumor growth inhibition
Experimental: as §1, §4, §5
For the NCI-H2170 study, tucatinib was administered orally at a dose of 50 mg/kg twice per day for 21 days, beginning on study day 18. […] A vehicle-only group was included as a negative control.

Measured: effect on tumor growth (in words)

trastuzumab
inhibited tumor growth: all assays above

Source: patent publication US20230173067A1 (Seagen Inc., priority 2020, published 2023)
